Results published in PubChem BioAssay (NCI).
Where “and” joins values, the source holds several entries; their conditions need not be identical. Equal values may be shown once. The list shows a part of the results, in another mix than the full data.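 The endpoint reported here, percent growth, reads 100 for growth as untreated, 0 for no net growth and -100 for all cells dead.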 Some salts or complexes appear as unconnected parts, following the source record. Calls of active or inactive are those of the source. How the source made its calls: active means growth percent below 10; inactive means the rest.

tested on: MDA-MB-468 breast; assay: NCI-60 one-dose screen, 48 h (100 = growth as untreated, 0 = no growth, -100 = all killed); conditions: 10 µM

SMILES | growth
CCCOP(=S)(Cl)OCCC | inactive: 113%
O=[N+]([O-])c1cc([N+](=O)[O-])c(Nc2nnnn2CCO)c([N+](=O)[O-])c1 | inactive: 96.3%
COC(=O)C(O)(c1ccccc1)c1ccccc1 | inactive: 98.7%
O=[N+]([O-])c1cc([N+](=O)[O-])c(NCCO)c([N+](=O)[O-])c1 | inactive: 79.7%
O=[N+]([O-])c1ccc(OP2(=O)COCCO2)cc1 (stereo not given) | inactive: 104%
Clc1ccccc1SCCBr | inactive: 99.6%
CC(C)N1CCN(CCOC(=O)C(O)(c2ccccc2)c2ccccc2)CC1 | inactive: 108%
O=[N+]([O-])c1cc([N+](=O)[O-])c(Oc2ccccc2)c([N+](=O)[O-])c1 | inactive: 104%
CCOC(=O)CSc1c(N)c(C)nn1C.O=[N+]([O-])c1cc([N+](=O)[O-])c(O)c([N+](=O)[O-])c1 | inactive: 108%
CN/C(N)=N/[N+](=O)[O-] | inactive: 103%
CP(=O)(OCCCl)N(CCCl)CCCl (stereo not given) | inactive: 102%
CCN(CC)CCOC(=O)C(O)(c1cc(C)cc(C)c1)c1cc(C)cc(C)c1 | inactive: 98.5%
O=C1C(O)=C([N+](=O)[O-])C(=O)C(O)=C1[N+](=O)[O-] | inactive: 106%
CN(CCO)CCCl.O=[N+]([O-])c1cc([N+](=O)[O-])c(O)c([N+](=O)[O-])c1 | inactive: 97.8%
n1nc(-c2nn[nH]n2)n[nH]1 | inactive: 90%
O=[N+]([O-])N(CCOC(N(F)F)(N(F)F)N(F)F)CC([N+](=O)[O-])([N+](=O)[O-])[N+](=O)[O-] | inactive: 111%
CCN(CC)CCOC(=O)C(O)(c1ccccc1)c1cc(C)c(C)c(C)c1C (stereo not given) | inactive: 94.3%
O=C(OCCN1CCCCCCCC1)C(O)(c1ccccc1)c1ccccc1 | inactive: 105%
O=[N+]([O-])c1cc([N+](=O)[O-])c(O)c([N+](=O)[O-])c1.c1ccc(Cc2ccncc2)cc1 | inactive: 88.3%
O=[N+]([O-])c1cc([N+](=O)[O-])c(Nc2ccc(Cl)cc2)c([N+](=O)[O-])c1 | active: -6.01%
Nc1cccc(Cl)c1.O=[N+]([O-])c1cc([N+](=O)[O-])c(O)c([N+](=O)[O-])c1 | inactive: 98.5%
CP(=O)(OCCCCl)N(CCCl)CCCl (stereo not given) | inactive: 93.6%
O=[N+]([O-])c1cc([N+](=O)[O-])c(O)c([N+](=O)[O-])c1.c1ccc([I+]c2ccccc2)cc1 | inactive: 39.1%
OCCSCCO | inactive: 104%
NC(=NCCN/C(N)=N/[N+](=O)[O-])N[N+](=O)[O-] | inactive: 109%
O=[N+]([O-])c1cccc([N+](=O)[O-])c1O | inactive: 116%
CC[N+]([O-])(CC)Cc1ccccc1.O=[N+]([O-])c1cc([N+](=O)[O-])c(S(=O)(=O)O)c([N+](=O)[O-])c1 | inactive: 93%
Nc1cc([N+](=O)[O-])cc([N+](=O)[O-])c1O | inactive: 123% and inactive: 96%
Cc1c([N+](=O)[O-])cc([N+](=O)[O-])c(Br)c1[N+](=O)[O-] | active: -67.8%
CCCCCCCOP(=O)(CC)OCCCCCCC | inactive: 94.8%
